Assay results taken from US20240382474A1, “ENPP1 MODULATORS AND USES THEREOF” (Vir Biotechnology, Inc., priority 2021, published 2024).

Chains of the proteins cited; added tags and fusions are not shown. Residues count along the entry.
UniProt P22413, 191-591 limits assumed: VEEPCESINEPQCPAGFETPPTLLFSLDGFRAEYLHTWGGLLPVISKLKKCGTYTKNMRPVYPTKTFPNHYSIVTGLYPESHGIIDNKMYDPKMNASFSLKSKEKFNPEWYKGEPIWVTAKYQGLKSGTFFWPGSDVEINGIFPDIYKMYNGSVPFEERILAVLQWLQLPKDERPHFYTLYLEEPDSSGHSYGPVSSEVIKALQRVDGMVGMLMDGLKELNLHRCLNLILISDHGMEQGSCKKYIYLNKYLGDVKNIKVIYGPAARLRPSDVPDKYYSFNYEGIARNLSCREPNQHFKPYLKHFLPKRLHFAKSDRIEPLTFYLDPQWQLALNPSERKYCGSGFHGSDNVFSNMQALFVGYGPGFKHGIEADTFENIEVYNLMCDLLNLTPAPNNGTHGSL

Target: human ENPP1 enzymatic domain (Homo sapiens, UniProt P22413)
Assay: ENPP1 Enzymatic Inhibition Assay (2′3′-cGAMP substrate, AMP-Glo luminescence)
Conditions: read-out: ENPP1 (cGAMP) Inhibition, 1 nM ENPP1, 20 uM 2′3′-cGAMP, 30 minutes at 37° C.
Description: The inhibition of ENPP1's phosphodiesterase activity were tested in a purified enzymatic assay using 2′3′-cyclic GAMP as a substrate which allowed for the release of cleaved AMP to be monitored using a luminescent assay.
Putative inhibitors were diluted in assay buffer (50 mM Tris pH 8.0, 250 mM NaCl, 0.5 mM CaCl2), 1 uM ZnCl2, 1% DMSO) and pre-incubated for 15 minutes at 37° C. with recombinant protein containing the human ENPP1 enzymatic domain (Viva Biotech). The enzymatic reaction was initiated upon addition of the 2′3′-cGAMP substrate. The final reaction concentrations were 1 nM ENPP1 and 20 uM 2′3′-cGAMP substrate in a 25 uL volume. Inhibitor concentrations ranged from 10 uM to 0.056 nM. The reaction was incubated for 30 minutes at 37° C.
After reacting for 30 minutes, the amount of AMP generated from the cleavage of 2′3′-cGAMP was determined using the Promega AMP-Glo method according to the manufacturer's protocol. […] The luminescence of the mixture was read on a Perkin Elmer Ensight plate reader.
The maximum and minimum levels of ENPP1 activity were established using no inhibitor and no enzyme controls, respectively. The activity observed using ENPP1 inhibitors was quantified as the percent of activity relative to these controls. IC50 values were calculated using CDD Vault by fitting a sigmoidal variable slope nonlinear regression model to the data.

IC50: < 10 nM
SMILES: CCC(NS(=N)(=O)c1ccc(Oc2ccnc3cc(OC)ccc23)cc1)c1ccn(C)n1 (single isomer, unassigned)
